# Literature values as cited in paper PMC7187754, “Identification of the Molecular Determinants Involved in Antimicrobial Activity of Pseudodesmin A, a Cyclic Lipopeptide From the Viscosin Group” (Frontiers in Microbiology, 2020).
# Tested on: selection of Gram-negative bacteria
# Conditions: ref Sinnaeve et al., 2009b; cited from earlier work
substance,measurement,value
Pseudodesmin A,activity against Gram-negative bacteria,did not show activity
